Literature values as cited in patent publication US10016389B2, “Method of making liposomes, liposome compositions made by the methods, and methods of using the same” (LivOn Laboratories, priority 2011, dated 2018).

Conditions: humans

oral dose absorbed: 30-40%
Substance: R-(+)-lipoic acid [R-LA]
